Measured values reported in patent publication US12421212B2, “Substituted benzenecarboxamides as IL-17A modulators” (DiCE Alpha, Inc., priority 2019, dated 2025).

Amino acid sequences for entries named in this document (tags omitted). Residues count along the entry.
UniProt Q16552, 24-155 limits assumed: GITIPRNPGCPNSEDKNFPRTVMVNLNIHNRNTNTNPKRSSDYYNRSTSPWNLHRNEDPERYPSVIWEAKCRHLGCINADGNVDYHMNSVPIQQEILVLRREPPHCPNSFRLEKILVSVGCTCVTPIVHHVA

Molecular target: IL-17A/A (Homo sapiens, UniProt Q16552)
Assay: IL-17A/A HEK-Blue Cell Assay
Settings: HEK-Blue IL-17A reporter cell line, SEAP readout at A630, 20 hours incubation with IL-17A/A; top concentration 10 uM, 1 uM or 0.3 uM

| SMILES | IL-17A/A inhibition (pIC50) |
| --- | --- |
| CCc1nocc1C(=O)N[C@H](C(=O)Nc1ccc([C@H](C)[C@@H](NC(=O)c2cncs2)C(=O)N2CCN(C)CC2)cc1F)C1CCCCCC1 | A (compounds having a pIC50 of greater than or equal 8 as A) |
| CCc1nonc1C(=O)N[C@H](C(=O)Nc1ccc([C@H](C)[C@@H](NC(=O)N(C)C2CC2)C(=O)N2CCN(C)C(C)(C)C2)cc1F)[C@H]1CC[C@H](C)CC1 | A (compounds having a pIC50 of greater than or equal 8 as A) |
| [2H]C([2H])([2H])N1CCN(C(=O)[C@H](NC(=O)CC)[C@@H](C)c2ccc(NC(=O)[C@@H](NC(=O)c3nonc3CC)[C@H]3CC[C@H](C)CC3)c(F)c2)CC1 | B (8>B≥7 as B) |
| CC(C)n1nccc1C(=O)N[C@H](C(=O)Nc1ccc([C@H](C)[C@@H](NC(=O)c2cnns2)C(=O)N2CCN(C)CC2)cc1)C1CCCCCC1 | A (compounds having a pIC50 of greater than or equal 8 as A) |
| CCC(=O)N[C@@H](C(=O)N1CCN(C)CC1)[C@@H](C)c1ccc(NC(=O)C(NC(=O)c2ccnn2CC)C(CC)c2ccc(Cl)cc2)c(F)c1 (single isomer, unassigned) | A (compounds having a pIC50 of greater than or equal 8 as A) |
| CCn1nccc1C(=O)N[C@H](C(=O)Nc1ccc([C@H](C)[C@@H](NC(=O)c2cnc(C)s2)C(=O)N2CCN(C)CC2)cc1F)C1CCCCC1 | C (7>C≥5) |
| C[C@@H](c1ccc(NC(=O)[C@@H](NC(=O)C(F)(F)c2cccc(C#N)c2)C2CCCCCC2)c(F)c1)[C@@H](NC(=O)c1ccnn1C1CCN(C)CC1)C(=O)N1CCOCC1 | A (compounds having a pIC50 of greater than or equal 8 as A) |
| CCn1nccc1C(=O)N[C@H](C(=O)Nc1ccc(C[C@@H](NC(=O)NC2CC2)C(=O)N2CCN(C)CC2)cc1F)C1CCCCC1 | C (7>C≥5) |
